# Assay results from ChEMBL document CHEMBL1135819, “N-[3-(1H-imidazol-4-ylmethyl)phenyl]ethanesulfonamide (ABT-866, 1),(1) a novel alpha(1)-adrenoceptor ligand with an enhanced in vitro and in vivo profile relative to phenylpropanolamine and midodrine” (J Med Chem, 2002).
# By UniProt entry, the sequences of proteins in these tests, tags left out.
# UniProt P23944, whole entry: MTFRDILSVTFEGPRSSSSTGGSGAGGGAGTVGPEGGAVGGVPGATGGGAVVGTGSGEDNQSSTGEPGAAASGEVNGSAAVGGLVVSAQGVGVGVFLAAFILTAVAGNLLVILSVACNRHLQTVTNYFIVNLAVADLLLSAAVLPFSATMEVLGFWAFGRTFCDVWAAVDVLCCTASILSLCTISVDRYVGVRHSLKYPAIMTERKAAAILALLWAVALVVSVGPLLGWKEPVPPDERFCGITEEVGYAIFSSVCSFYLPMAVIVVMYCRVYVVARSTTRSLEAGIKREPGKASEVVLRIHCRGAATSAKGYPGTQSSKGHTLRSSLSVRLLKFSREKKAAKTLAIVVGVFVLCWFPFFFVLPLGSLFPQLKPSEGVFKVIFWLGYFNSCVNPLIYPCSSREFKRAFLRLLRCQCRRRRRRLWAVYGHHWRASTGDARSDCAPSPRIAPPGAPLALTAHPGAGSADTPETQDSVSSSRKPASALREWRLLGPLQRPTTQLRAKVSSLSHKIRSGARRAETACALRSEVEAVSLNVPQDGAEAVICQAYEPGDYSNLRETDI
# Molecular target: Alpha-1D adrenergic receptor (Rattus norvegicus) (UniProt P23944)
# Details: Aorta; 10 uM
structure (smiles),measurement,value
CCS(=O)(=O)Nc1cccc(Cc2c[nH]cn2)c1,NA,inactive

# Active and inactive are the calls of the source. No cut-off for these calls is given here.
